Data: patent publication US11912716B2 (priority 2018, dated 2024)

The chains behind the UniProt entries cited, without tags or fusion partners. Where a name states a change or a piece, a line headed by the entry shows the natural chain unless it says otherwise.
UniProt P41145: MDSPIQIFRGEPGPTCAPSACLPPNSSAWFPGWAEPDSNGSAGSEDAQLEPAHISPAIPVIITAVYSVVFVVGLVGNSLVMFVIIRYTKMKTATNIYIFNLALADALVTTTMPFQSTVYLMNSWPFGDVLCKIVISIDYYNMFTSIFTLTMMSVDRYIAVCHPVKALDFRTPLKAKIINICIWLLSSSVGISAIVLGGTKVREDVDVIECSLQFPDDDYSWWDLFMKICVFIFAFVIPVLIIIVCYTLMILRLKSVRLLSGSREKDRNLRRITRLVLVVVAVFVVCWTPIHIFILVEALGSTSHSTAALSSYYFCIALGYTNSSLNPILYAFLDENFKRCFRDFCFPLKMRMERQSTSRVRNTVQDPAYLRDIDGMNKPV

Legend:
[1] = target: κ opioid receptor (Homo sapiens (Human), UniProt P41145); assay: radioligand-receptor binding assay, 3H-U69593 displacement; conditions: read-out: κ binding affinity Ki; CHO cell membranes, 1.4-1.5 nM 3H-U69593
[2] = test system: ICR mice; assay: mouse rotarod model, sedative effect (Example 11); conditions: U50488 5 mg/kg intraperitoneal

Q: Which Ki [1] does the source give for (±)-trans-U50488 here?
A: 2.19 nM

Q: And the “retention time on the rotarod, 30 min after administration” value ([2]; 30 min)?
A: 100.7 ± 23.9 s

Q: And the “sedative effect (in words)” value ([2]; 30 minutes after administration)?
A: significant sedative effect

Q: And the “retention time on the rotarod, 60 min after administration” value ([2]; 60 min)?
A: 181.2 ± 1.966 s

Q: What about the “retention time on the rotarod, 120 min after administration” value ([2]; 120 min) of the same substance?
A: 223.7 ± 11.7 s
